# Source: PubChem BioAssay AID684 (PCMD, 2007)
# Chains of the proteins cited; added tags and fusions are not shown. Lines headed by an entry give the natural chain unless they say otherwise; changes in a name come on top.
# UniProt P00748: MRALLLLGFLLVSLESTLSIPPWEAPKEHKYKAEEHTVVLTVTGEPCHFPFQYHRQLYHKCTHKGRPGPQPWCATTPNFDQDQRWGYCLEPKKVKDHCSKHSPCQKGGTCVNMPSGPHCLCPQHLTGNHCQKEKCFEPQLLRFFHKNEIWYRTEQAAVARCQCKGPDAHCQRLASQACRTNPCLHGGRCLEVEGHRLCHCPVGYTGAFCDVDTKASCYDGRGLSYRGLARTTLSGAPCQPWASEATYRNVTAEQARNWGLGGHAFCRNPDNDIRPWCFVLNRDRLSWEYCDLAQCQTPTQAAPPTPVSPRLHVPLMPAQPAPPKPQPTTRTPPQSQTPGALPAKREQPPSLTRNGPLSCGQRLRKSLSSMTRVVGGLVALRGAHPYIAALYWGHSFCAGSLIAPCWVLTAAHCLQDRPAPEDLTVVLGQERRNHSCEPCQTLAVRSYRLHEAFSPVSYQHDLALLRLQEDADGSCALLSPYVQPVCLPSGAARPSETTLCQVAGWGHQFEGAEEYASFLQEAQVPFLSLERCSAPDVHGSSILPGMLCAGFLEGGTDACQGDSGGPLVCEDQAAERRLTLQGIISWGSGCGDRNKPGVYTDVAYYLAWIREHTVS
# The entries are a selection whose mix differs from that of the whole data set. Activity calls are given as the source filed them. Rule as the data show it: active = inhibition above about 20% (passing the limit was not always enough); inactive = the rest.
# Target: Coagulation factor XII (Homo sapiens) (UniProt P00748)
# Assay: blockers of FXIIa protease activity – biochemical, pooled compound mixtures, fluorogenic substrate, primary screen (AID 684);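 also: 0% = enzyme without compound and 100% = no enzyme blank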
# Details: purified FXIIa, at 5 µM, stronger effect = higher value
row,SMILES,inhibition
1,CCc1nc2c(n1)c1c(non1O)c1c2no[n+]1[O-],inactive: 8.26%
2,Cc1c2non([O-])c-2c(C)[n+](=O)[n+]1[O-],inactive: -0.35%
3,COC(=O)c1cc2c(s1)N=C(c1ccccc1)N(C)P2(=O)N1CCOCC1 (stereo not given),inactive: 1.75%
4,O=P1(Nc2nc3ccc(Cl)cc3s2)COc2ccccc2O1 (stereo not given),inactive: 9.23%
5,c1nnnn1CCn1cnnn1,inactive: -1.23%
6,O=P(Nc1nccs1)(c1ccccc1)c1ccccc1,inactive: 19.7%
7,O=C(OC1CN2CCC1CC2)c1cccc(Cl)c1 (stereo not given),inactive: 12.6%
8,Cc1nn(-c2ccccc2)c2c1P(=O)(N1CCOCC1)N(C)C(c1ccccc1)=N2 (stereo not given),inactive: 4.2%
9,O=P1(Nc2ccc(Br)cn2)COc2ccccc2OC1,inactive: 2%
10,Cc1ccc(OCC(=O)OC2CN3CCC2CC3)cc1 (stereo not given),inactive: 4.44%
11,O=P1(Nc2ncccn2)COc2ccccc2OC1,inactive: 6.57%
12,Clc1n[nH]nc1-c1nn[nH][15n]1,inactive: 1.26%
13,O=P1(Nc2ccccn2)COc2ccccc2OC1,inactive: 11.2%
14,Cc1cccc(OCC(=O)OC2CN3CCC2CC3)c1 (stereo not given),inactive: 0.68%
15,CCOP1(=S)c2c(C)nn(CCC#N)c2N=C(c2ccccc2F)N1C (stereo not given),inactive: -0.505%
16,O=P(Nc1nccs1)(c1ccccc1)c1nc2ccccc2s1 (stereo not given),inactive: 3.51%
17,CCOP1(=S)c2c(C)nn(CCC#N)c2N=C(c2ccc(F)cc2)N1C (stereo not given),inactive: 2.38%
18,O=C(OC1CN2CCC1CC2)C12CC3CC(CC(C3)C1)C2 (stereo not given),inactive: 8.94%
19,O=C(COc1ccccc1)OC1CN2CCC1CC2 (stereo not given),inactive: 0.435%
20,COP1(=S)c2c(C)nn(CCC#N)c2N=C(c2ccc(F)cc2)N1C (stereo not given),inactive: 0.42%
